Target: T1, C-domain of MALT1 (amino acids 329-824) (Homo sapiens, UniProt Q9UDY8)
T1 sequence (Q9UDY8 329-824): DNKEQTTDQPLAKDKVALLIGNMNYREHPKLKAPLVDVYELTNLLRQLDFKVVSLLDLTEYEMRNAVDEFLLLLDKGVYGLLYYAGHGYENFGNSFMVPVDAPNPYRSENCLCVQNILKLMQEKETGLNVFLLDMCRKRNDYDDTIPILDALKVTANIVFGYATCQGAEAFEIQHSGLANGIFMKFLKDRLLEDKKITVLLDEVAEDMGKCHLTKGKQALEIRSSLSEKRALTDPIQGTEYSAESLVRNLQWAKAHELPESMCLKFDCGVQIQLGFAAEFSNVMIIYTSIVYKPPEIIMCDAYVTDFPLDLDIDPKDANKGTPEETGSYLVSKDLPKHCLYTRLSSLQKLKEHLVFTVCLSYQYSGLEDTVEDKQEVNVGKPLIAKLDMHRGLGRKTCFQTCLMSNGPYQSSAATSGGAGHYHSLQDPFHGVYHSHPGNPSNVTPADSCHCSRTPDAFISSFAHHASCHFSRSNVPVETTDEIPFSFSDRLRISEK
Assay: MALT1 Biochemical Assay - Version 1 (fluorescence lifetime)

IC50: 3 nM
SMILES: CO[C@@H](C)[C@H](OC)c1c(NC(=O)Nc2cnc(-n3nccn3)c(Cl)c2)cnc2cc(Cl)nn12 [Example 10, 1-(5-chloro-6-(2H-1,2,3-triazol-2-yl)pyridin-3-yl)-3-(2-chloro-7-((1R, 2S)-1,2-dimethoxypropyl)pyrazolo[1,5-a]pyrimidin-6-yl) urea]
